ChEMBL document CHEMBL5550096, “Casitas b cell lymphoma‑B (Cbl-b): A new therapeutic avenue for small-molecule immunotherapy” (Bioorg Med Chem, 2024)

By UniProt entry, the sequences of proteins in these tests, tags left out.
UniProt Q13191, whole entry: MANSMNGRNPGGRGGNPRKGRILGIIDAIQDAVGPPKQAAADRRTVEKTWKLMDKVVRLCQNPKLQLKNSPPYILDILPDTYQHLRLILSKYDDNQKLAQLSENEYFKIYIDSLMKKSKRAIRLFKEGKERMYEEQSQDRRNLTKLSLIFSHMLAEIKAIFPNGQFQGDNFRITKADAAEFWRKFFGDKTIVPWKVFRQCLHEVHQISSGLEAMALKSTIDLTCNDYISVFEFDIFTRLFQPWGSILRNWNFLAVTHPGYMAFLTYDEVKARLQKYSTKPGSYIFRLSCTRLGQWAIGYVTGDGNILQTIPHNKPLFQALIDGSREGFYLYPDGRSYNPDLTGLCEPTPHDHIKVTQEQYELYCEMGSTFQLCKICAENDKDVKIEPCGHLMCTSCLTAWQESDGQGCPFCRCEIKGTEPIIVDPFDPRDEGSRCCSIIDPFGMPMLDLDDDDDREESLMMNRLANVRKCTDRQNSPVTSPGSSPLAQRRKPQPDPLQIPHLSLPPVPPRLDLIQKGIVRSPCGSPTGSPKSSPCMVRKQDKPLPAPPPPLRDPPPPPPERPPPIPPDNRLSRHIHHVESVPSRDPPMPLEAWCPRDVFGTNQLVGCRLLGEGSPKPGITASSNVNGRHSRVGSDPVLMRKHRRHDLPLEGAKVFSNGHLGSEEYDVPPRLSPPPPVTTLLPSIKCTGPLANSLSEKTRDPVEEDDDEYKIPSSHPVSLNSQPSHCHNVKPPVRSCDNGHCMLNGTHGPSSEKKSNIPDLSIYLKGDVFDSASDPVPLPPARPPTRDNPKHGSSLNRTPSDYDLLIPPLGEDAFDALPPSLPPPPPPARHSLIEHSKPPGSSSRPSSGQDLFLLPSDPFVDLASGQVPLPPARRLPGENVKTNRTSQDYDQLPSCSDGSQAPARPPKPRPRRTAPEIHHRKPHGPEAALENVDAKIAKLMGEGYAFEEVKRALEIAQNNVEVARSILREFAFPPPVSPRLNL

Target: E3 ubiquitin-protein ligase CBL-B (Homo sapiens, UniProt Q13191)
Test: Inhibition of biotinylated recombinant Cbl-b (36 to 427 residues)(unknown origin) expressed in Escherichia coli BL21(DE3) measured for 1 hr by TR-FRET assay

pIC50: 7.52
Structure (SMILES): C[C@@H](c1cnn(C)c1)n1cc(C(F)(F)F)cc(-c2cccc([C@]3(c4nncn4C)C[C@@H](C)C3)c2)c1=O

pIC50: −log10 of the molar value.
